The text below walks through data of US11219221B2 (FarmHannong Co., Ltd., priority 2017, dated 2022).

For test [1], the target named is Thermosynechococcus sp. NK55a PPO CyPPO17 (SEQ ID NO: 3) variant V164C (MBP fusion). The test can be described thus: PPO enzyme inhibition (IC50), MBP-fused PPO. The class given is biochemical. To be noted: 50 μM protoporphyrinogen IX, pH 8.0, room temperature, 30 min. The protocol:
(§1) Thus, PPO proteins of wild type and variants were expressed as fused to MBP and were used for experiments.
(§2) The following process for purification of PPO protein was performed in a 4° C. cold room. Amylose resin (NEB) was packed to 1.5×15 cm column (Bio-Rad, Econo Columns 1.5×15 cm, glass chromatography column, max. vol), and the obtained protein extracts were loaded to the column at a flow rate of 0.2 ml/min. The column was washed with 3 column volumes of buffer and the presence of protein in the washing solution was examined. When the protein was no longer detected, the washing procedure was terminated. Then, the MBP-PPO protein was eluted with approximately 2 column volumes of buffer containing 20 mM maltose. The protein concentration of each eluent was determined and the elution was stopped when the protein was no longer detected. Ten microliter of each fraction was investigated for protein quantification and SDS-PAGE analysis. […]
(§3) Hundred and eighty microliters of a reaction mixture containing the purified PPO protein were placed in 96 well plates and 20 μl of […] were added. […] The reaction proceeded at room temperature for 30 min and the fluorescence of protoporphyrin IX was measured using Microplate reader (Sense, Hidex) (excitation: 405 nm; emission: 633 nm). […] To this, 2.7 N HCl was added, and the absorbance at 408 nm was measured. […]

In test [2] the target is Thermosynechococcus sp. NK55a PPO CyPPO17 (SEQ ID NO: 3) variant A166L (MBP fusion). The test can be described thus: PPO enzyme inhibition (IC50), MBP-fused PPO. The class given is biochemical. The following applies: 50 μM protoporphyrinogen IX, pH 8.0, room temperature, 30 min. As for the experimental part:
as §1, §2, §3

Test [3] concerns wild type A. thaliana (Col-0 ecotype). In words: Herbicide spray test on Arabidopsis. The class given is in vivo, Arabidopsis thaliana. The following applies: 1 μM spray (100 ml, 0.24 m^2), within 7 days, 4-week-old plants.

By IC50 is commonly meant the concentration at which inhibition is half-maximal. A lower IC50 goes with inhibition by little substance.

Some results are limits rather than exact numbers.

In test [1], `C#CCN1C(=O)COc2cc(F)c(N3C(=O)C4=C(CCCC4)C3=O)cc21` [flumioxazin] displayed an IC50 of 58 nM.

For the molecule `Cc1nn(-c2cc(NS(C)(=O)=O)c(Cl)cc2Cl)c(=O)n1C(F)F` [sulfentrazone], in test [2], the half-maximal inhibitory concentration (IC50) is above 10000 nM.

In the case of `COC(=O)CCNC(=O)C(C)Sc1cc(-n2c(=O)cc(C(F)(F)F)n(C)c2=O)c(F)cc1Cl` (stereo not drawn) [tiafenacil], the “Plant death after herbicide spray” value in test [3] is on record as “completely died”.
